Activity calls are given as the source filed them. The rule behind the calls is not given here.
Target: Delta-type opioid receptor (Rattus norvegicus) (UniProt P33533)
Assay: Agonist activity at rat DOR expressed in rat C6 cells at 10 uM after 1 hr by [35S]GTPgammaS binding assay relative to DPDPE
Type: functional, cell-based

Chains of the proteins cited; added tags and fusions are not shown.
UniProt P33533, whole entry: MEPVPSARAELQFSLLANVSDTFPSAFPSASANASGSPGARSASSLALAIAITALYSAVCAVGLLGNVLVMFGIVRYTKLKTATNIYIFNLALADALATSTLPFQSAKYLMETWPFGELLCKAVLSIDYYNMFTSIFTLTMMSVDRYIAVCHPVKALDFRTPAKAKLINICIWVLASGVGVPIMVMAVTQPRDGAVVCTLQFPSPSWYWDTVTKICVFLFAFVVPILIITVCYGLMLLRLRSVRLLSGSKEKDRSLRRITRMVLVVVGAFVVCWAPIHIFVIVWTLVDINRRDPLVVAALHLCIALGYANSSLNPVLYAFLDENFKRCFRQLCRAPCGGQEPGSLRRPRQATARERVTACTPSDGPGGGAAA

Structure (SMILES) | max activation
Cc1cc(O)ccc1C[C@H](N)C(=O)N[C@@H]1CCNc2ccc(Cc3ccccc3)cc21 | inactive
Cc1cccc(C)c1C[C@H](N)C(=O)N[C@@H]1CCNc2ccc(Cc3ccccc3)cc21 | inactive

From ChEMBL document CHEMBL3769345, “Rapid Synthesis of Boc-2',6'-dimethyl-l-tyrosine and Derivatives and Incorporation into Opioid Peptidomimetics” (ACS Med Chem Lett, 2015)
